# Only a part is listed here, and it is no random draw. Calls of active or inactive are those of the source.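 The calls were made as follows: active = inhibition above the mean of all tested compounds plus 3 SD, set per campaign (cut at about 25% in these data); inactive = the rest.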
# The chains behind the UniProt entries cited, without tags or fusion partners.
# UniProt O95551, whole entry: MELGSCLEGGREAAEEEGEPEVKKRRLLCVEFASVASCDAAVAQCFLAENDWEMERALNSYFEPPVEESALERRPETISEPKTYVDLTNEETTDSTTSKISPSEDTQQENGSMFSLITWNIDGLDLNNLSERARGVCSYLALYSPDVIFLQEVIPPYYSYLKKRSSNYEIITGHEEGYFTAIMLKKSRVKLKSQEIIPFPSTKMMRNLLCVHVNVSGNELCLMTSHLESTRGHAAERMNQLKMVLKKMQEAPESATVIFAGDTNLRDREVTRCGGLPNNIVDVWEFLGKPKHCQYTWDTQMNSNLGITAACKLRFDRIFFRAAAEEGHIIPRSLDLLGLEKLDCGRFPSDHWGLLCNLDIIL
# Biological target: Tyrosyl-DNA phosphodiesterase 2 (Homo sapiens) (UniProt O95551)
# Assay: human TDP2 enzyme inhibitors, primary screen, biochemical, epi absorbance, recombinant enzyme (AID 720702);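 also: 0% = DMSO with enzyme and 100% = buffer with substrate but no TDP2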
# Settings: recombinant TDP2, T5PNP hydrolysis, p-nitrophenol absorbance 415 nm; at 12.8 µM; hits give high values
# Outline: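 System – recombinant human TDP2 · Quantity – TDP2 enzyme at 120 nM final · Doses – single concentration, 12.8 µM nominal, with 1% DMSO · Incubation – 2 h at 37 °C · Measured by – epi absorbance of p-nitrophenol freed from T5PNP by hydrolysis · Read-out – % inhibition relative to enzyme-containing and enzyme-free wells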
row,Structure (SMILES),inhibition
1,CCC(=O)N(c1ccccc1)C1(COC)CCN(CCn2nnn(CC)c2=O)CC1,inactive: 3.18%
2,CCC(=O)N(c1ccccc1)C1(COC)CCN(CCc2cccs2)CC1,inactive: -5.16%

# Source: PubChem BioAssay AID720702 (The Scripps Research Institute Molecular Screening Center, 2013)
